Sequences of proteins named here, by UniProt entry; tags and fusion partners are left off.
UniProt P03372, whole entry: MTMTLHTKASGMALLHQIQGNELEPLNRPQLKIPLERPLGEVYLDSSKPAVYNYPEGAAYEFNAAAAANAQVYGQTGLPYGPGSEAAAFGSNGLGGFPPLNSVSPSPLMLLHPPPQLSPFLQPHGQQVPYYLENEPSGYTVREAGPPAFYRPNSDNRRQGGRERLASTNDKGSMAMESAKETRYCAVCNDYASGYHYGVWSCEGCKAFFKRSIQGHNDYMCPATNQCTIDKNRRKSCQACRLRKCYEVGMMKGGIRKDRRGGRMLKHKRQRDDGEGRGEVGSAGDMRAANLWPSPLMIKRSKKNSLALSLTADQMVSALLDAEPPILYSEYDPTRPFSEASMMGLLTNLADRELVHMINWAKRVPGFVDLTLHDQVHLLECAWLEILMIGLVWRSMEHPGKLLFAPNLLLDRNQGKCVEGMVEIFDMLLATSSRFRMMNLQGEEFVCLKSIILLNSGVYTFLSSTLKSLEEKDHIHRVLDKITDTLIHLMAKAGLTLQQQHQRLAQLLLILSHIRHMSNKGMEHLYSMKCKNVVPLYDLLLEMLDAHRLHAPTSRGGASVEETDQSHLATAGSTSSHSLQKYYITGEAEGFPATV

In patent publication US10590130B2, “Chemical compounds” (AstraZeneca AB, priority 2016, dated 2020):

Biological target: ERα receptor in MCF-7 cells (Homo sapiens (Human), UniProt P03372)
Assay: MCF-7 ER down-regulation assay (immuno-fluorescence)
Type: cell-based
Settings: shown in parentheses where not >90%
Experimental: The Echo uses acoustic technology to perform direct microplate-to-microplate transfers of DMSO compound solutions to assay plates. The system can be programmed to transfer volumes as low as 2.5 nL in multiple increments between microplates and in so doing generates a serial dilution of compound in the assay plate which is then back-filled to normalise the DMSO concentration across the dilution range. […] Cells were fixed at room temperature for 20 mins before being washed two times with 250 μL PBS/Proclin (PBS with a Biocide preservative) using a BioTek platewasher, 40 μL of PBS/Proclin was then added to all wells and the plates stored at 4° C. […] The PBS/Proclin was aspirated from all wells and the cells permeabilised with 40 μL PBS containing 0.5% Tween™ 20 (v/v) for 1 hour at room temperature. The plates were washed three times in 250 μL of PBS/0.05% (v/v) Tween 20 with Proclin (PBST with a Biocide preservative) and then 20 μL of ERα (SP1) Rabbit monoclonal antibody (Thermofisher) 1:1000 in PBS/Tween™/3% (w/v) Bovine Serum Albumin was added. The plates were incubated overnight at 4° C. (Liconic carousel incubator) and then washed three times in 250 μL of PBS/0.05% (v/v) Tween™ 20 with Proclin (PBST). […] 20 μL of PBS was added to each well and the plates covered with a black plate seal and stored at 4° C. before being read. […]

In the case of COC[C@](C)(F)CN1[C@H](c2ccc(OC3CN(CCCF)C3)cc2OC)c2ccc3[nH]ncc3c2C[C@H]1C (single isomer, unassigned) [Example 12], the “% downregulation” value is reported as 83%.
